Molecules are shown by their SMILES.

Amino acid sequences for entries named in this document (tags omitted). Residues count along the entry.
UniProt P23945, 18-695 limits assumed: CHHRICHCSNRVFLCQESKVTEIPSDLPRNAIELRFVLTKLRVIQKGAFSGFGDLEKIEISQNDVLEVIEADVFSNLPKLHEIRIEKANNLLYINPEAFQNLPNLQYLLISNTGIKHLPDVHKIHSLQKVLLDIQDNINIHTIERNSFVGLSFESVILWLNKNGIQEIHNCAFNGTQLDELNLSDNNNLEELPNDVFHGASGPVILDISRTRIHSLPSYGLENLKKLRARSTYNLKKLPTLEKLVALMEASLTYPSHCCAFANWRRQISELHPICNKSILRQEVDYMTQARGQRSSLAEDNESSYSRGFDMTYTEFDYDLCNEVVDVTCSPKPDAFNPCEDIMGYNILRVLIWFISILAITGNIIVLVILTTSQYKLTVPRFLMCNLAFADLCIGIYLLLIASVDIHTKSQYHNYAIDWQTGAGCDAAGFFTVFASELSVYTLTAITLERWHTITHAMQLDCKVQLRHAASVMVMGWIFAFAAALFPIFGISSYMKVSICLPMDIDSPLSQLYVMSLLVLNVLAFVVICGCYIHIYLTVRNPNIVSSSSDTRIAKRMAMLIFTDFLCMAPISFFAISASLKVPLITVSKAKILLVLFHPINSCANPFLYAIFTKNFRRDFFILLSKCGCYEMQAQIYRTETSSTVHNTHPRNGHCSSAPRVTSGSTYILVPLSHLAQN

One test concerns the target human FSH receptor (Homo sapiens, UniProt P23945). Put plainly: hFSHR CHO cAMP assay (rhFSHR-cLUC cells, FSH-stimulated cAMP, radioimmunoassay). The note with it: read-out: EC50 hFSHR CHO cAMP; inhibition of cAMP produced by EC70 dose of FSH (4.85 nM); maximum concentration 50 μM. For orientation: cAMP levels reflect the balance of adenylyl cyclase and phosphodiesterase activity.

In another test the test system is Rat Granulosa Cell. Put plainly: Rat granulosa cell FSH-stimulated cAMP production. Conditions: read-out: Rat Granulosa Cell EC50 cAMP; inhibition of cAMP produced by EC70 dose of FSH (1.4 nM); maximum concentration 50 μM. Here is the method: Insulin, diethylstilbesterol, androstenedione, forskolin and DMSO were purchased from Sigma (St. Louis, Mo.). Fungizone, penicillin/streptomycin, charcoal-treated heat inactivated fetal bovine serum (CT-HI-FBS) and Dulbecco's Modified Eagle Medium:Hams F12 medium containing 15 mM Hepes and L-glutamine (DMEM:F12), were purchased from GIBCO BRL (Grand Island, N.Y.).
Ovine FSH (NIADDK-oFSH-17; FSH potency=20 NIH-FSH-S1 U/mg; LH contamination=0.04 times NIH-LH-S1) was received from Ogden Bioservices Corporation, Rockville, Md. Human FSH (Fertinex), was purchased from Serono Pharmaceutical (Framingham, Mass.). Human chorionic gonadotropin (hCG) was purchased from Sigma (St Louis, Mo.).
Immature intact female rats (Wistar-derived strain; 21-23 days old) were implanted with a single pellet (Innovative Research of America, Sarasota, Fla.) containing 2.5 mg diethylstilbesterol (DES) for 3 days. On the third day, the animals were sacrificed, the ovaries were removed, and the granulosa cells were isolated essentially as described in Haynes-Johnson et al., Biol. Reprod., 61 (1), 147-153, (1999). Granulosa cells were plated at a density of 300,000 cells per ml with 0.2 ml added to each well of 96 well culture dishes (Corning, N.Y.). Cultures were incubated at 37° C. in a humidified incubator (95% air, 5% CO2) overnight (18 hours).
Androstenedione (100,000X) was prepared by dissolving the steroid in 100% ethanol, and was subsequently diluted to a final concentration of 10^−7M containing 0.1% ethanol in assay media. The assay media was serum-free, DES-free, insulin-free media, prepared by adding 5 mL pen-strep,1.5 mL fungizone and 5 μL androstenedione to 493.5 mL DMEM F-12 media.
Test compounds were solubilized in 30% dimethyl sulfoxide (DMSO) at a concentration of 10 mM before diluting to appropriate concentrations in assay medium. The final DMSO concentration in the treated cells and in the control cells was 0.75%.
Test plates containing the granulosa cells were preincubated for 18 hours at 37° C. with 95% air, 5% CO2, 100% humidity. The spent media was removed and 50 μl assay media (DMEM:F12) containing 2 mM IBMX (3-isobutyl-1-methyl-xanthine) was added to the cells. Compounds (25 μl) in the appropriate concentration were added followed 5 minutes later by an EC70 dose of FSH (25 μl; 50 ng/ml; 1.4 nM). After 30 minutes @ 22.5° C. (room temperature) the reaction was terminated by addition of 25 μL 0.5 N hydrochloric acid to each well. The amount of cAMP produced was measured by radioimmunoassay in a FlashPlate (DuPont, Boston, Mass.). To each flash plate 60 μL flash plate buffer was added followed by 40 μL acidified cell sample or cAMP standard, followed with the addition of 100 μl ^125l-cAMP trace. The FlashPlates were sealed, incubated overnight @ room temperature, and counted in a Packard TopCount (Packard Instrument Co., Meriden, Conn.). The cAMP radioimmunoassay results were calculated using DPM conversion and log-logit transformation of % binding (Excel program).

For orientation: EC50 means the concentration needed to bring the measured effect to its halfway point. For `COc1ccccc1CCN(CC(=O)N[C@H]1CC[C@H](N)CC1)S(=O)(=O)c1ccc(-c2ccncc2)cc1`, the EC50 at human FSH receptor stood at 8390 nM; in the test with Rat Granulosa Cell it was 1320 nM.
With `COc1ccccc1CN(CC(=O)NCC1CCC(CN)CC1)S(=O)(=O)c1ccc(C(F)(F)F)cc1[N+](=O)[O-]` (stereo not shown), the EC50 at human FSH receptor stood at 37700 nM; in the test on Rat Granulosa Cell, 3890 nM.
In the case of `COc1ccccc1CCN(CC(=O)NCc1ccc(CN)cc1)S(=O)(=O)c1ccc(-c2ccc(F)c(Cl)c2)cc1`, the EC50 worked out at 3370 nM on human FSH receptor and 1670 nM in the test with Rat Granulosa Cell.
Regarding `COc1ccccc1CN(CC(=O)NCC1CCC(CN)CC1)S(=O)(=O)c1ccccc1` (stereo not shown), the values for the EC50 at human FSH receptor and in the test on Rat Granulosa Cell were 1690 nM and 520 nM, respectively.
Taken in the same sequence, the figures for `COc1ccccc1CN(CC(=O)NCC1CCC(CN)CC1)S(=O)(=O)c1ccc(-c2ccccc2OC)cc1` (stereo not shown) were 960 nM and 270 nM.
Consider `COc1ccccc1CCN(CC(=O)NCc1ccc(CN)cc1)S(=O)(=O)c1ccc(-c2cccc([N+](=O)[O-])c2)cc1`, for which the results for the EC50 on human FSH receptor and in the test with Rat Granulosa Cell were 3710 nM and 1390 nM, respectively.
As for `COc1ccccc1CCN(CC(=O)NCc1ccc(CN)cc1)S(=O)(=O)c1ccc(-c2ccc(F)cc2)s1`, the EC50 turned out to be 1600 nM at human FSH receptor and 2150 nM with Rat Granulosa Cell.
Taken in the same sequence, the figures for `COc1ccccc1CN(CC(=O)NCC1CCC(CN)CC1)S(=O)(=O)c1ccc(-c2ccc(Cl)cc2Cl)cc1` (stereo not shown) were 1590 nM and 290 nM.
Consider `COc1ccccc1CN(CC(=O)NCC1CCC(CN)CC1)S(=O)(=O)c1cccc(C(F)(F)F)c1` (stereo not shown), for which the EC50 at human FSH receptor worked out at 12700 nM; with Rat Granulosa Cell, 260 nM.
As for `COc1ccccc1CN(CC(=O)NCC1CCC(CN)CC1)S(=O)(=O)c1ccccc1F` (stereo not shown), the concentration for a half-maximal effect (EC50) was found to be 18800 nM on human FSH receptor and 5010 nM in the test on Rat Granulosa Cell.
Taken in the same sequence, the figures for `COc1ccccc1CCN(CC(=O)NCc1ccc(CN)cc1)S(=O)(=O)c1ccc(-c2ccccc2C(F)(F)F)cc1` were 1820 nM and 360 nM.
For `COc1ccccc1CN(CC(=O)NCC1CCC(CN)CC1)S(=O)(=O)c1ccc(-c2cccc(C(F)(F)F)c2)cc1` (stereo not shown), the results for the 50% effective concentration (EC50) on human FSH receptor and in the test on Rat Granulosa Cell were 930 nM and 340 nM, respectively.
Taken in the same sequence, the figures for `COc1ccccc1CN(CC(=O)NCC1CCC(CN)CC1)S(=O)(=O)c1ccc(-c2ccccc2C)cc1` (stereo not shown) were 650 nM and 290 nM.
With `COc1ccccc1CN(CC(=O)NCC1CCC(CN)CC1)S(=O)(=O)c1cccc2ccccc12` (stereo not shown), the EC50 was determined as 19500 nM at human FSH receptor and 1920 nM with Rat Granulosa Cell.
On to `COc1ccccc1CN(CC(=O)NCC1CCC(CN)CC1)S(=O)(=O)c1ccc(-c2ccccc2Cl)cc1` (stereo not shown), for which the results for the EC50 at human FSH receptor and in the test with Rat Granulosa Cell were 600 nM and 210 nM, respectively.
Turning to `C[C@H](CN(CC(=O)N1CCC(C2CCNCC2)CC1)S(=O)(=O)c1ccc(-c2ccccc2Cl)cc1)c1ccccc1`, the results for the EC50 on human FSH receptor and with Rat Granulosa Cell were 570 nM and 220 nM, respectively.
The corresponding values for `COc1ccccc1CN(CC(=O)NCC1CCC(CN)CC1)S(=O)(=O)c1cc(Cl)ccc1Cl` (stereo not shown) are 28500 nM and 3500 nM.
The corresponding values for `COc1ccccc1CCN(CC(=O)NCc1ccc(CN)cc1)S(=O)(=O)c1c(Cl)cccc1Cl` are 4030 nM and 10000 nM.
Taken in the same sequence, the figures for `COc1ccccc1CCN(CC(=O)NCc1ccc(CN)cc1)S(=O)(=O)c1cccc(C(F)(F)F)c1` were 2920 nM and 1020 nM.
For the compound `COc1ccccc1CN(CC(=O)NCC1CCC(CN)CC1)S(=O)(=O)c1ccccc1Cl` (stereo not shown), the EC50 on human FSH receptor worked out at 28800 nM; with Rat Granulosa Cell, 6370 nM.
Taken in the same sequence, the figures for `COc1ccccc1CCN(CC(=O)N[C@H]1CC[C@H](N)CC1)S(=O)(=O)c1ccc(-c2cccnc2)cc1` were 28300 nM and 550 nM.
Taken in the same sequence, the figures for `COc1ccccc1CCN(CC(=O)NCC1CCC(CN)CC1)S(=O)(=O)c1ccc(-c2ccccc2C(F)(F)F)cc1` (stereo not shown) were 500 nM and 1070 nM.
Taken in the same sequence, the figures for `COc1cccc(-c2ccc(S(=O)(=O)N(CCc3ccccc3OC)CC(=O)N[C@H]3CC[C@H](N)CC3)cc2)c1` were 10200 nM and 8630 nM.

(Values after patent US6583179B2, “Substituted aminoalkylamide derivatives as antagonists of follicle stimulating hormone” (Ortho-McNeil Pharmaceutical, Inc., priority 1999, dated 2003).)
